The nature of the experiment: Selectivity for FLAG-tagged human mTOR over PI3Kalpha.

For `CNC(=O)Nc1ccc(-c2nc(N3C[C@@H](C)O[C@@H](C)C3)c3cnn(C4CCN(Cc5cccnc5)CC4)c3n2)cc1`, the Ratio IC50 came out at 46. The same measure for `CCNC(=O)Nc1ccc(-c2nc(N3CCOCC3)c3cnn(C4CCN(C(=O)OC)CC4)c3n2)cc1`: 1530.

(Values after ChEMBL document CHEMBL1154707, “Morpholine derivatives greatly enhance the selectivity of mammalian target of rapamycin (mTOR) inhibitors” (J Med Chem, 2009).)
